Values quoted from earlier work as cited in US20100041622A1, “Compositions containing aminoalkanes and aminoalkane derivatives” (priority 2008, published 2010).

Conditions: hydrophilic-lipophilic balance value, known values

Tocopherol polyethylene glycol succinate
HLB: 16-18
